Measured values taken from ChEMBL document CHEMBL1268960, “Discovery of cell-active phenyl-imidazole Pin1 inhibitors by structure-guided fragment evolution” (Bioorg Med Chem Lett, 2010).

Sequences of proteins named here, by UniProt entry; tags and fusion partners are left off.
UniProt Q13526, whole entry: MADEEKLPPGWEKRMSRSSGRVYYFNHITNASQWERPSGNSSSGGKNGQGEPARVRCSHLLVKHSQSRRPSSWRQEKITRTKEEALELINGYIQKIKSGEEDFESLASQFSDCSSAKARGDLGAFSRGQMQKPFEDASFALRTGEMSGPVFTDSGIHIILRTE

Biological target: Peptidyl-prolyl cis-trans isomerase NIMA-interacting 1 (Homo sapiens, UniProt Q13526)
Test: Binding affinity to Pin1 by isothermal calorimetry

`O=C(O)c1nc(-c2ccccc2)[nH]c1C(=O)O` was tested, and the Kd was 1700 nM.
